AlphaSeq binding of Ab-14 heavy chain variants to a spike HR2 peptide

Data: MIT Lincoln Laboratory AlphaSeq set, Li et al. 2023, doi:10.1038/s41467-023-39022-2, as distributed in FLAb.

Target: peptide PDVDLGDISGINAS, taken from heptad repeat 2 (HR2) of SARS-CoV-2 spike.

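The parent was found by panning a naive human phage display library on the peptide. Designed CDR sequences, proposed from the first random library and measured here. Their group label is 14H_En_Gibbs (En: ensemble of fine-tuned language models; Gibbs: Gibbs sampling). In AlphaSeq, yeast of one mating type display the scFv and yeast of the other type display the target. Pairs that bind mate more often; barcode pairs of the diploids are counted by sequencing. Each replicate has its own calibration line, from reference interactions of the BCL2 family. Each pool was mated in six replicate cultures.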

The variants keep the light chain, the linker and the frameworks of Ab-14 (scFv order VH, the linker GGGGSGGGGSGGGGS, VL).
VH: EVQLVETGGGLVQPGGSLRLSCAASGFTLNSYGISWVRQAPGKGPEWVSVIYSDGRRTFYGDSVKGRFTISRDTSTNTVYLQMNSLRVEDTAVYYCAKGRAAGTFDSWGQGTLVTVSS
VL: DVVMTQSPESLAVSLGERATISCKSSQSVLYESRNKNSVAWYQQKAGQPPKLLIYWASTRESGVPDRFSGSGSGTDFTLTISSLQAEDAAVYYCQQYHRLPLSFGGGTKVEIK

Each variant is given by its three heavy chain CDRs, as the data file delimits them; those of the parent are GFTLNSYGIS, VIYSDGRRTFYGDSVK, GRAAGTFDS.
Numbers give log10(Kd / nM), so 0 is 1 nM and 3 is 1 µM. Smaller is tighter.
The mean shown is taken over the replicates in which the pair was detected.
A pair that was not seen in that replicate is written "nd"; this usually means weak binding, but a binder can also be missed.
The parent sequence was in this pool as ten entries: three were never detected, three once, and four in most replicates, with averages from 0.34 to 2.37.

CDR-H1,CDR-H2,CDR-H3,"replicates, log10 nM","mean, log10 nM",empty controls
GGDIQEYGIS,VIYADGQRASYADAVK,GTIGGIFSD,0.26 / 1.30 / 1.08 / 1.82 / nd / 2.77,1.44,0 of 18
GFKLNEYGIS,VIYADGKRTAYADEVK,GGGTTDRDV,nd / nd / nd / nd / nd / nd,nd,0 of 18
GFDIQDYGIS,VIYADGSRTAYVNSVK,GEQGATLDV,nd / nd / nd / nd / nd / 3.00,3.00,0 of 18
GKGLDEYGVS,VIYADGKRHFYAEDVK,GGIAGQFLV,nd / nd / nd / nd / nd / nd,nd,0 of 18
GFSLGEYGIS,VIYADGVRRSYADKVK,GKNGAISSV,nd / nd / nd / nd / nd / nd,nd,0 of 18
GFEIDEYGIS,VIYADGIRRQYADNVK,GYTDDAFDM,nd / nd / nd / nd / nd / nd,nd,1 of 18 (1.68)
GFQLEEMGIS,VIYADGARTAYSSKVK,GGNGDKFDV,nd / nd / nd / nd / nd / nd,nd,0 of 18
GFGLDEYGIS,VIYADGQRYAYKNSVK,GGDGINGLY,nd / nd / nd / nd / nd / nd,nd,0 of 18
GFDVDEYGIS,VIYADGRRSQYANSVK,GAIGGTFDM,nd / nd / nd / nd / nd / nd,nd,0 of 18
GFDINEYGIS,VIFADGMRTAYDNSVK,GQMAGFFIM,nd / nd / nd / nd / nd / nd,nd,0 of 18
GFLIDEYGIS,VIYADGQRTAYTDDVK,GYVGGIGGI,nd / nd / nd / nd / nd / nd,nd,0 of 18
GFDLNEYGIS,VIYADGMRTFYADNAK,GNAGIVAEV,nd / nd / nd / nd / nd / nd,nd,1 of 18 (1.62)
GPNLEEYGIS,VIYADGIRTAYKDSVK,GDVAGYGVF,0.17 / -0.31 / 0.48 / -0.40 / -0.26 / 0.46,0.02,0 of 18
GFSLDEYGIS,VIYADGVRKSYMNSVK,GNITGTLFA,nd / nd / nd / nd / nd / nd,nd,0 of 18
GFNLLEYGIS,VIYADGMRQAYVEDVK,GTNGVSVFF,nd / nd / nd / nd / nd / nd,nd,0 of 18
GFDIESFGIS,VIYADGIRAFYAQKVK,GTIAGTFVD,1.24 / 1.67 / 2.23 / 1.94 / 1.40 / 0.90,1.56,0 of 18
GFDVDEYGIS,VIYADGFRTSYTADVK,GSQVGNALV,nd / nd / nd / 2.79 / nd / nd,2.79,0 of 18
GFGLDEFGIS,VIYADGLRSSYADDVK,GEMTGGFVV,nd / nd / nd / nd / nd / nd,nd,0 of 18
GFDLGEYGIS,VIYADGSRSAYATNVK,GGSGYKDGV,nd / nd / nd / nd / nd / nd,nd,0 of 18
GDILEDYGIS,VIYADGRRRAYQENVK,GEYAGYFDV,3.28 / nd / nd / nd / 1.74 / 1.84,2.29,1 of 18 (1.59)
GFDIQDYGIS,VIYADGQRAAYADGVK,GLIAGIFNT,2.36 / 0.92 / 0.78 / 0.83 / 1.27 / 1.27,1.24,0 of 18
GQDLSEYGIS,VIYADGERRSYANSVK,GNVSGNFSQ,nd / nd / nd / nd / nd / nd,nd,0 of 18
GADLQEYGIS,VIYADGNRYAYTNSVK,GTQGGSLIV,nd / nd / nd / nd / nd / nd,nd,0 of 18
GFDLQEYGIS,VIYADGKRRAYENKVK,GQSVRSVVI,nd / nd / nd / nd / nd / nd,nd,0 of 18
GFELDEMGIS,VIYADGKRAAYSENVK,GDNRGIFHL,nd / nd / nd / nd / nd / nd,nd,0 of 18
GKDIEEYGIS,VIYADGMRQAYADSVK,GNVVGSGSF,nd / nd / nd / nd / nd / nd,nd,0 of 18
GFDLEEYGIS,VIYADGERVFYADSVK,GGFDGYKVR,nd / 2.11 / nd / 1.82 / nd / nd,1.96,2 of 18 (2.92)
GFDLTEYGIS,VIYADGRRTEYSDDVK,GQTAGHFLD,nd / nd / nd / nd / 1.70 / nd,1.70,0 of 18
GFSLDEFGIS,VIYADGMRSFYLDSVK,GINGNVLWI,nd / nd / nd / nd / nd / nd,nd,0 of 18
GMDLNEYGIS,VIYADGSRTSYQEKVK,GLVGGMLDV,nd / nd / nd / nd / nd / nd,nd,0 of 18
GFSLDEYGIS,VIYADGVRQFYADDVK,GGIAGTFNY,nd / nd / nd / nd / nd / nd,nd,0 of 18
GQDLNEYGIS,VIYADGKRVAYEDSVK,GKSKGLIFV,nd / nd / nd / nd / nd / nd,nd,0 of 18
GFDLMEYGIS,VIYADGVRTAYQDQVK,GEEAGALYT,nd / nd / nd / nd / nd / nd,nd,0 of 18
GFDLQEYGIS,VIYADGARKSYTNSVK,GVVGGTMDV,-0.67 / 0.03 / -0.83 / nd / 0.29 / nd,-0.30,0 of 18
GQDLNEYGIS,VIYADGRRQMYANPVK,GHQGGIKLD,nd / nd / nd / nd / nd / nd,nd,0 of 18
GFELDEYGIS,VIYADGKRKAYDNAVK,GKTGGVKLD,nd / nd / nd / nd / nd / nd,nd,0 of 18
GFNLNEYGIS,VIYADGRRYAYIDSVK,GIVVAKNLY,nd / nd / nd / nd / nd / nd,nd,0 of 18
GFDINEYGIS,VIYADGQREAYAESVK,GFNQTINLV,nd / nd / nd / nd / nd / nd,nd,0 of 18
GFGLDEYGIS,VIYADGERKYYTDNVK,GHFGEIGIV,nd / nd / nd / nd / nd / nd,nd,2 of 18 (3.00)
GFDVEKYGIS,VIYADGYRSAYASSVK,GGEAGNFHV,-0.54 / -0.83 / -0.55 / -0.96 / -0.67 / -0.44,-0.66,1 of 18 (1.17)
GFDIEEYGIS,VIYADGSRTAYSDSVK,SGYTFNMDL,nd / nd / nd / nd / nd / 2.19,2.19,0 of 18
GFDLQEYGIS,VIYADGKRSMYSNDVK,GEVGLGELL,nd / nd / nd / nd / nd / nd,nd,0 of 18
GYDLNEYGIS,VIYADGRRAAYIDDVK,DEVNDGVLV,nd / nd / nd / nd / nd / nd,nd,0 of 18
GFDLMEYGIS,VIYADGQRQYYANKFK,GEISASFLI,nd / nd / 1.61 / nd / nd / nd,1.61,0 of 18
GFNLDEYGVS,VIYADGHRTAYVNTVK,GKTGFVDDD,nd / nd / nd / nd / nd / nd,nd,0 of 18
GIDLEKYGIS,VIYADGMRASYSDAVK,GDLSGTFYI,nd / nd / nd / 3.27 / nd / nd,3.27,0 of 18
GFDLEEYGIS,VIYADGQRFAYAQDFK,GEAAGAFDL,2.47 / 1.01 / 1.10 / nd / 0.88 / nd,1.36,1 of 18 (1.20)
GFDIQEYGIS,VIYADGVRSAYIDNVK,GDTGSSFLE,nd / 2.43 / nd / nd / nd / nd,2.43,0 of 18

Top 4 of the variants detected in all replicates, tightest first:

CDR-H1,CDR-H2,CDR-H3,"replicates, log10 nM","mean, log10 nM",empty controls
GFDVEKYGIS,VIYADGYRSAYASSVK,GGEAGNFHV,-0.54 / -0.83 / -0.55 / -0.96 / -0.67 / -0.44,-0.66,1 of 18 (1.17)
GPNLEEYGIS,VIYADGIRTAYKDSVK,GDVAGYGVF,0.17 / -0.31 / 0.48 / -0.40 / -0.26 / 0.46,0.02,0 of 18
GFDIQDYGIS,VIYADGQRAAYADGVK,GLIAGIFNT,2.36 / 0.92 / 0.78 / 0.83 / 1.27 / 1.27,1.24,0 of 18
GFDIESFGIS,VIYADGIRAFYAQKVK,GTIAGTFVD,1.24 / 1.67 / 2.23 / 1.94 / 1.40 / 0.90,1.56,0 of 18

The range of this assay differs from that of the first round, and the authors advise against merging the two.
The authors' rule: three or more of the six replicates give a measured affinity, fewer mean a poor binder.
Background: pairings of all heavy chain designs with three empty control strains gave a value in 1% of cases (median 2.08, 5th percentile 0.84). Values in that range, when seen in few replicates, are hard to tell from nonspecific mating. Also given: how often the same scFv was detected with the empty control strains, with their mean in brackets.